Measured values published in PubChem BioAssay AID602346 (Broad Institute, 2012).
This is a selection; strong and weak results do not stand in their true shares. Activity calls are given as the source filed them. No stated cut-off is given here; in the data, active means inhibition above about 50% (passing the limit was not always enough); inconclusive means no clear call, values can overlap the other calls; inactive means below about 31%.

assay: HIV Vif self-association inhibitors, primary screen, imaging, HEK293T, single point (AID 602346); settings: HEK293T cells, Vif self-association by quenched fluorescence, 24 h, at 7.49 µM, stronger effect = higher value

Structure (SMILES) | inhibition
CP(=O)(Nc1ccc(SC(F)(F)F)cc1)Oc1ccccc1 (configuration not stated) | inactive: -17.1%
NC(=O)Nc1ccc([As](=O)(O)O)cc1 | inactive: -1.56%
